Protein sequences, listed by entry. Tags and fused reporters are not part of them. Residues count along the entry.
UniProt Q5S007, whole entry: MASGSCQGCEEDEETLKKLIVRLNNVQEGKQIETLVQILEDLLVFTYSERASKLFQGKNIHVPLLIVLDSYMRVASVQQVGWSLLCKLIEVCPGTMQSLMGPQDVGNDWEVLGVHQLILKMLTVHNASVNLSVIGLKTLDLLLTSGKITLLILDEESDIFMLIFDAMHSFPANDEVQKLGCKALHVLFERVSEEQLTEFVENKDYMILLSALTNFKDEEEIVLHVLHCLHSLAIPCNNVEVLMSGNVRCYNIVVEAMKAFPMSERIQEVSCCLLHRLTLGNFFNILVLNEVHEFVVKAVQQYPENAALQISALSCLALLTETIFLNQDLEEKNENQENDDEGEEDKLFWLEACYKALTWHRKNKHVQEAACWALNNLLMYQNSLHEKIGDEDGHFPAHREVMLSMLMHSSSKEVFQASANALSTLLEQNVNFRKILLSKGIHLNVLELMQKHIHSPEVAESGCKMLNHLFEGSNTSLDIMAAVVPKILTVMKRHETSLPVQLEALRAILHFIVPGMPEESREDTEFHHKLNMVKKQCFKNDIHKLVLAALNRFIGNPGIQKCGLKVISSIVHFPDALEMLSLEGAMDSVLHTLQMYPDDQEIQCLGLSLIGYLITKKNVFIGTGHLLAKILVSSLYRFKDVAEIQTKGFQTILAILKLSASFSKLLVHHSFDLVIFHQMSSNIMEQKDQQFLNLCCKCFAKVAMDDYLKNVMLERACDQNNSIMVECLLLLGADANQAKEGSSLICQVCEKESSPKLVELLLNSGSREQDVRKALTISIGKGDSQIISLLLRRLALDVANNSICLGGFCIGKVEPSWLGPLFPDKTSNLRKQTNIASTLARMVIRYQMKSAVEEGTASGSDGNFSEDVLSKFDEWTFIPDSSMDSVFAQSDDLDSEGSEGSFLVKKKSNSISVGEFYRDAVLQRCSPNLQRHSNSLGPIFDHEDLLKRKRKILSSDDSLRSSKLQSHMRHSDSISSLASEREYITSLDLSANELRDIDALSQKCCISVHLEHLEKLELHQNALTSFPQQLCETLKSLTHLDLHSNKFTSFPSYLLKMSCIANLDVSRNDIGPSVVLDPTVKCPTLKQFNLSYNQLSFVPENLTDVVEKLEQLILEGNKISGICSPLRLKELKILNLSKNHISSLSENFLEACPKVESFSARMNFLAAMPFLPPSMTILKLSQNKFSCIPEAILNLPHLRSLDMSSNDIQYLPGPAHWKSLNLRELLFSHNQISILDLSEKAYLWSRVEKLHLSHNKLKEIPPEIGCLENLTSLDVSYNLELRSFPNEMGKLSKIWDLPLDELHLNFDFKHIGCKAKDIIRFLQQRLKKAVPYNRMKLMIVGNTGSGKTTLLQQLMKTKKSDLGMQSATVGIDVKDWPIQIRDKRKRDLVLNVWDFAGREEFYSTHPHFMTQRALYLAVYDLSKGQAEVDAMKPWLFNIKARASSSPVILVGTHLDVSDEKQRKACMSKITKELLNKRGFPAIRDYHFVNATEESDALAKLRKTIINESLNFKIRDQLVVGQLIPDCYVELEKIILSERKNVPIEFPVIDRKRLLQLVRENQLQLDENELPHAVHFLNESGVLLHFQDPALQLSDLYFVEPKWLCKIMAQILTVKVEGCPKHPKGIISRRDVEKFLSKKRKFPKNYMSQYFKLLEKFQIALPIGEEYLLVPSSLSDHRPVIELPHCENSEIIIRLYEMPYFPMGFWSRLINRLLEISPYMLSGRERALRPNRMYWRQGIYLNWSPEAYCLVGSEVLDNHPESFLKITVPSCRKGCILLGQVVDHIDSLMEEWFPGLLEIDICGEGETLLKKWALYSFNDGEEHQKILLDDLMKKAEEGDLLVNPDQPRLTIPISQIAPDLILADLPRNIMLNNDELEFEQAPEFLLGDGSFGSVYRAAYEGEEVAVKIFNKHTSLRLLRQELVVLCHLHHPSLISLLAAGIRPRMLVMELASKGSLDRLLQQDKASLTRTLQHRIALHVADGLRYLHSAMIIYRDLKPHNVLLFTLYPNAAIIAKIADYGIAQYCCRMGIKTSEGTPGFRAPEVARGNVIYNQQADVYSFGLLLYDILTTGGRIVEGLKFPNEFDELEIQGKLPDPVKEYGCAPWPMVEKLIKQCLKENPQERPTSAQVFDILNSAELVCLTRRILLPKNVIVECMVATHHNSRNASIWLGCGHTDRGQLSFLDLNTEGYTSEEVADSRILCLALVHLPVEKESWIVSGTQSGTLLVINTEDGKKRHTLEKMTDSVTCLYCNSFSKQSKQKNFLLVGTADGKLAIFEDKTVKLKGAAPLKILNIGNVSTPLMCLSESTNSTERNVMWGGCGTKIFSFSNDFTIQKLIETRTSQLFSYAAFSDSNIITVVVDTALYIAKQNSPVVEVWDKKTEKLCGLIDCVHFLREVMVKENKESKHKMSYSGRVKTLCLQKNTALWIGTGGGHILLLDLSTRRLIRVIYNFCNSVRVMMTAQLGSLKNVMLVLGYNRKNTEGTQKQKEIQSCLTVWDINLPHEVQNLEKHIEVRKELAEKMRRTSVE
UniProt P56817, 46-501 limits assumed: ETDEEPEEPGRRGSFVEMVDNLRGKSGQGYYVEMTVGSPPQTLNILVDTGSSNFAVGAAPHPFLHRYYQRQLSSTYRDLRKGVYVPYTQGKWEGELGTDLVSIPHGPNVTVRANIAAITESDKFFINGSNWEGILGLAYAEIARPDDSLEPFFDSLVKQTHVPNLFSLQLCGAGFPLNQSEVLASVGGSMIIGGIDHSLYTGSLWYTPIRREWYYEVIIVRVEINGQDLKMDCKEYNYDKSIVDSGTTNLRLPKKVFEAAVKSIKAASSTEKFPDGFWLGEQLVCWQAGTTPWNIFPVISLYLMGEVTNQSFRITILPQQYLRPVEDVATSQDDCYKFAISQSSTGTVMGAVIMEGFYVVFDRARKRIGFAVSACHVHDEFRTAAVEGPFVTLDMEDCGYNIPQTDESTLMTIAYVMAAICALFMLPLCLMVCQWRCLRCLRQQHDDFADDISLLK

In PMC8457121, “From Kinase Inhibitors to Multitarget Ligands as Powerful Drug Leads for Alzheimer's Disease using Protein‐Templated Synthesis” (Angewandte Chemie (International Ed. in English), 2021):

Columns and labels:
[1] = biological target: T1, LRRK2 (Homo sapiens, UniProt Q5S007); experiment: LRRK2 inhibition enzymatic assay (Adapta, ThermoFisher); assay type: biochemical; conditions: read-out: LRRK2 IC50
[2] = biological target: T1, LRRK2; conditions: read-out: LRRK2 inhibitor IC50; MBC chemical library lead, Figure 5 ref 31, 34, 35, 36; cited from earlier work
[3] = biological target: BACE1 (Homo sapiens, UniProt P56817); experiment: BACE1 enzymatic assay (FRET); assay type: biochemical; conditions: read-out: BACE1 IC50

In the case of O=C(Nc1nc2ccccc2s1)c1ccccc1, the IC50 [1] is listed as 1050 nM, the IC50 [2] is listed as 1050 nM and the IC50 [3] is listed as greater than 20 µM.

Like-named read-outs stand apart in the source and are kept apart here.
